Read-outs that look alike come from different tables or passages of the source.
Molecular target: S. maltophilia DHFR (Stenotrophomonas maltophilia, UniProt B2FPG1)

Amino acid sequences for entries named in this document (tags omitted).
UniProt B2FPG1, entry or part of it: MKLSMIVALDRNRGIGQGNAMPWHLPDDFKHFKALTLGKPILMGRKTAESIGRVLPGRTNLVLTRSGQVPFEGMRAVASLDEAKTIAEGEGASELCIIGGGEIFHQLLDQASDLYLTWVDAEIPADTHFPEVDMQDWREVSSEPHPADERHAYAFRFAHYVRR

CN(Cc1cnc2nc(N)nc(N)c2n1)c1ccc(C(=O)N[C@@H](CCC(=O)O)C(=O)O)cc1 [methotrexate]
Ki: 0.018 nM | Ki (read-out: dissociation constant Ki, pH 8.0, fit to Eqn. 2): 0.018 nM

— patent US20070249545A1, “DIHYDROFOLATE REDUCTASE INHIBITION BY EPIGALLOCATECHIN GALLATE COMPOUNDS” (priority 2004, published 2007)
